The target in this assay is CDK5/p25 (Homo sapiens, UniProt Q00535). Briefly: Kinase inhibition assay, CDK5/p25. It counts as biochemical. The protocol:
The inhibitory potency of the synthesized pyrimido[4,5-b]indol-4-amines and pyrimido[5,4-b]indol-4-amines towards CDK5/p25, CK1δ/ε, DYRK1A, and GSK-3α/β was investigated according preceding procedures.
Buffers, kinase preparations, and assays were performed as described in ref. [12, 13, 14] according methods initially published in previous works.

Sequences of proteins named here, by UniProt entry; tags and fusion partners are left off.
UniProt Q00535, whole entry, species assumed: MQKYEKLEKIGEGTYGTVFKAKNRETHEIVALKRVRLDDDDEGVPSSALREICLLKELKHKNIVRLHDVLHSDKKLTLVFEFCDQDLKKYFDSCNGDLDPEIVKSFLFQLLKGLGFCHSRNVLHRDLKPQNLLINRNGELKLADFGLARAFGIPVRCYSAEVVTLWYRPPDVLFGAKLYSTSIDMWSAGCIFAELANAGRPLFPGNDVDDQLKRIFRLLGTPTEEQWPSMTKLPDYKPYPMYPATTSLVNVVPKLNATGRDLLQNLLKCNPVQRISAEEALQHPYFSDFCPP

Structures are written as SMILES. Bounds are passed on as bounds.

As for `COc1ccc2c(c1)[nH]c1c(C)nccc12` [Compound 11a, harmine, reference compound], the IC50 (in general, the point on the concentration scale where inhibition reaches its midpoint) is > 10 µM.

The values are drawn from publication PMC7281298, “Exploring Kinase Inhibition Properties of 9H-pyrimido[5,4-b]- and [4,5-b]indol-4-amine Derivatives” (Pharmaceuticals, 2020).
